{
  "source": "patent US10385403B2",
  "about": "“DDR2 mutations in squamous cell lung cancer” (The Broad Institute, Inc., priority 2012, dated 2019)",
  "system": "NIH-3T3 cells expressing L858R EGFR",
  "test": "Soft agar colony formation",
  "format": "cell-based",
  "data": [
    {"substance": "N-(2 ? chloro-6-methylphenyl)-2-[[6-[4-(2-hydroxyethyl)-1-piperazinyl]-2-methyl-4 ? pyrimidinyl]amino]-5-thiazolecarboxamide, monohydrate [Dasatinib]", "values": [
      {"measurement": "Colony formation in soft agar", "result": "inhibited the colony formation"}
    ]}
  ]
}
